Only some compounds are listed: those with a hit (about 0.34% of all), similar ones and a draw of the others.
Rango release inh: inhibition of RanGTP-driven Rango-importin beta dissociation. Biochemical FRET Rango-importin beta, RanGTP-induced dissociation. O95149+P62826. Potency, µM (series often up to 46.1 µM), for the others: at the highest dose activity change, negative = inhibition. 340,000 compounds, 0.071% hits; calls by dose curve; also: % of control where 0% means no effect; nearly all actives have a fitted effect of over 45% in size
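Quantitative HTS using a FRET biosensor: 0.1 uM Rango, 0.25 uM importin beta, 0.6 uM Ran, 2 mM GTP, 0.2 uM RCC1 final, PBS with DTT, Tween-20 and BSA. Post-read taken 45 min after Ran addition.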
ASM inhibitor: human S-ASM enzyme inhibition. P17405. placental ASM, HMU-PC fluorogenic substrate, 60 min. Potency, µM (series often up to 57.5 µM), for inactives: at the highest dose activity change, negative = inhibition, actives largely listed as inhibitors. 340,000 compounds, 0.006% hits. AID 504937
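Fluorescence read-out (Ex 386 nm, Em 447 nm) after stopping the reaction at pH 10. Enzyme: ASM from human placenta; substrate HMU-PC0, 9 uM final; 60 min, 37 °C. Compound preincubation 10 min, ambient temperature.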
Eya2 phos inh: blocks the phosphatase activity of human Eya2; O00167; Potency, µM (doses to about 76.9 µM), for the others: top-dose activity, negative = inhibition, hits mostly inhibitors; recombinant Eya2, OMFP fluorescence dephosphorylation (OMFP is methylfluorescein phosphate); 330,000 compounds, 0.006% hits; AID 488837; also: % is scaled to controls: 0 for no effect and ±100 for the full control effect
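Eya2 (0.2 uM) preincubated 10 min at ambient with compound, then OMFP substrate added at 50 uM; 10 min reaction in 50 mM HEPES pH 7.5, 50 mM NaCl, 5 uM MgCl2, 0.05% BSA, 1 mM DTT. Fluorescence read at Ex 485/Em 525 nm.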
Vif-APOBEC3G blk: inhibitors of Vif-APOBEC3G interaction. HeLa A3G-eYFP + Vif (tagged APOBEC3G with the HIV-1 protein that degrades it), YFP fluorescence, overnight. Potency, µM (highest dose often 46.1 µM), for inactives: at the top dose activity, negative = active, most hits filed as inhibitors. 410,000 compounds, 0.076% hits. AID 602310. Q9HC16; also: % is scaled to controls: 0 for no effect and ±100 for the full control effect; nearly all actives have a fitted effect of over 60% in size
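Read-out is eYFP fluorescence (Ex 488/Em 500-530) from Vif-expressing HeLa A3G-eYFP cells; more signal means A3G escaped Vif-mediated degradation. Cells plated overnight, compound pinned in, incubated overnight at 37 deg C.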
Vif-A3F inh: inhibitors of Vif-A3F interaction | AID 602313 | Potency, µM (series often up to 46.1 µM), for the others: at the top dose activity, negative = active | HeLa A3F-eYFP + Vif (tagged APOBEC3F with the HIV-1 protein that degrades it), YFP fluorescence increase | 390,000 compounds, 0.2% hits; also: % of control where 0% means no effect; nearly all actives have a fitted effect of over 65% in size
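HeLa cells stably expressing A3F-eYFP plus Vif, plated and incubated overnight at 37 deg C, then exposed to compounds overnight at 37 deg C. Blocked degradation read as raised yellow fluorescence (Ex 488/Em 500-530).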
Rango complex inh: prevents formation of the Rango-importin beta complex; Q14974; Rango CFP/YFP FRET sensor + importin beta, 45 min; Potency, µM (highest dose often 92.2 µM), inactives show top-dose inhibition of complex formation; 340,000 compounds, 0.031% hits; AID 540263; calls by dose curve;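 also: 0% = DMSO wells and 100% = buffer wells lacking importin beta; nearly all actives have a fitted effect of over 15% in size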
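Inhibition scored from the CFP 486 nm/YFP 530 nm FRET ratio 45 min after adding 0.125 microM importin beta to 50 nM Rango biosensor preincubated 5 min with compound (room temperature, PBS with DTT, Tween-20, BSA). No-importin wells as positive control.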
An asterisk follows results filed as active; i = inactive; ? = inconclusive; . = no result given. Unless noted, calls follow the shape of the dose curve; as a rule, active = well fitted curve in the direction sought with a large enough effect; inconclusive = small, poorly fitted or top-dose-only effect, or another doubt; inactive = no such curve, though single readings can be large; an effect the other way counts as inactive or inconclusive. Potency is read from the fitted curve at half-maximal effect.

No. | Compound | Rango release inh | ASM inhibitor | Eya2 phos inh
1 | NC(=S)N/N=C\c1ccccc1OCc1ccccc1 | 0.7% | -3.0% | 0.9%
2 | COc1ccc(-c2noc(-c3ccc(N4CCCCC4C)c([N+](=O)[O-])c3)n2)cc1OC (stereo unspecified) | . | . | .
3 | COc1cc(-c2nc3ccccn3c2NCc2ccccc2)ccc1SC1CCCCC1 | ? | i | -12.3%
4 | COc1cc(-c2nc3ccc(C)cn3c2NCc2ccccc2)ccc1SC1CCCCC1 | ? | i | -3.9%
5 | Cc1ccc(NC(=S)N/N=C2\CCCCC2C)cc1 (stereo unspecified) | 10.8% | -2.5% | 6.0%
6 | CCCCCNc1nc2sc3c(c2c(=O)n1-c1cccc(Cl)c1)CCN(C)C3 | 16.4µM* | 12.2% | 8.5%
7 | Cc1ccc(Cn2cnc3c(cnn3C(C)(C)C)c2=O)cc1F | . | . | .
8 | CC(=O)Nc1ccc(S(=O)(=O)NCc2ccc3c(c2)cc(C)n3C)cc1 | 23.1µM* | -1.3% | -8.4%
9 | COc1cc(/C=C2/SC(=S)N(CC3CCCO3)C2=O)ccc1O (stereo unspecified) | ? | ? | 2.2%
10 | O=C1/C(=C/c2ccc(O)c(O)c2)SC(=S)N1Nc1ccccc1 | 0.4% | ? | -0.5%

No. | Vif-APOBEC3G blk | Vif-A3F inh | Rango complex inh
1 | -17.1% | 7.8% | 1.7%
2 | 0.0% | 1.1% | .
3 | -7.2% | 8.3% | ?
4 | 10µM* | -0.5% | ?
5 | ? | 22.4µM* | 0.2%
6 | -0.4% | -10.7% | ?
7 | 3.6% | . | .
8 | 0.7% | 3.1% | ?
9 | 4.8% | 31.6µM* | ?
10 | -2.3% | ? | 36.6µM*

No. | Compound | Rango release inh | ASM inhibitor | Eya2 phos inh
11 | O=C(NN1C(=O)/C(=C/c2ccc(O)c(O)c2)SC1=S)c1ccccc1 | ? | -28.9% | ?
12 | COc1cc(/C=C2\SC(=S)N(Nc3ccccc3)C2=O)ccc1O | 17.1% | . | 20.3%
13 | COc1ccc(/C=C2\SC(=S)N(CC3CCCO3)C2=O)cc1 (stereo unspecified) | -12.0% | -20.1% | 4.9%
14 | CCCCCCCCCCCCCCCCOC(=O)N1CCN(/[N+]([O-])=N/Oc2ccc([N+](=O)[O-])cc2[N+](C)=O)CC1 | . | . | .
15 | CCCC(=O)N(C)c1ccc(/C=C2\C=Cc3ccccc32)cc1 | . | . | .
16 | CC1(C)CC(=O)C(C=Nc2cc(C(=O)c3ccccc3)ccc2N)=C(O)C1 | ? | -3.1% | -8.9%
17 | COC(=O)c1ccc(N)c(N=CC2=C(O)CC(C)(C)CC2=O)c1 | ? | 8.0% | 2.3%
18 | COc1ccc(CC(=O)NNc2ncnc3c2cnn3-c2ccc(C)cc2)cc1 | 14.6µM* | -0.2% | -4.3%
19 | COc1ccc(CC(=O)NNc2ncnc3c2cnn3-c2ccccc2)cc1 | -11.6% | 1.5% | -1.9%
20 | CC(C)(C)OC(=O)N1CCN(/[N+]([O-])=N/Oc2ccc([N+](=O)[O-])cc2[N+](=O)[O-])CC1 | . | . | .

No. | Vif-APOBEC3G blk | Vif-A3F inh | Rango complex inh
11 | -8.1% | ? | 36.6µM*
12 | ? | ? | 36.6µM*
13 | 0.4% | 8.3% | 0.6%
14 | -0.6% | . | .
15 | -24.6% | . | .
16 | -23.2% | 28.2µM* | ?
17 | -6.5% | ? | ?
18 | -6.2% | -3.4% | -7.1%
19 | -5.1% | -13.5% | 0.8%
20 | -9.2% | . | .

No. | Compound | Rango release inh | ASM inhibitor | Eya2 phos inh
21 | COc1cc2c(NC3CCN(C)CC3)nc(N3CCCN(C)CC3)nc2cc1OCCCCCCN(C)C | . | . | .
22 | N#Cc1cc2ccccc2nc1SCc1ccccn1 | -20.7% | -2.9% | 7.5%
23 | CCOc1ccc(CNC(=O)Cn2nc(C)c3sc4ccccc4c3c2=O)cc1 | . | . | .
24 | COc1cnc(-c2ccccn2)nc1Oc1ccc(F)cc1F | -8.5% | 0.3% | -19.6%
25 | COc1ccc(C2C(C#N)=C(N)OC3=C2C(=O)CC(C)(C)C3)c([N+](=O)[O-])c1OC (stereo unspecified) | 23.1µM* | 24.3% | -4.4%
26 | COc1cc(/C=C/C(=O)OCC(=O)N2CCCc3ccccc32)ccc1O | 14.6µM* | 32.5% | -17.2%
27 | COc1cc(/C=C/C(=O)OCC(=O)N2CCCc3ccccc32)ccc1OCC#N | -18.3% | -4.3% | 2.6%
28 | O=C(C[N+]12CCCc3cccc(c31)CCC2)c1ccc2ccc3cccc4ccc1c2c34 | . | . | .
29 | Cc1cc(C)c2c(-n3cccc3)c(C(=O)NCCCN3CCCCC3)sc2n1 | . | . | .
30 | Nc1c(N(CCC2=CCCCC2)C(=O)c2ccc([N+](=O)[O-])o2)c(=O)[nH]c(=O)n1Cc1ccccc1 | -13.0% | 7.1% | -2.7%

No. | Vif-APOBEC3G blk | Vif-A3F inh | Rango complex inh
21 | 4.0% | . | .
22 | ? | 12.6µM* | 3.2%
23 | 0.5% | 0.1% | .
24 | -1.3% | 11.2µM* | -2.0%
25 | -0.1% | -1.7% | ?
26 | -3.5% | -3.3% | ?
27 | -4.7% | 0.3% | 6.7%
28 | -29.3% | . | .
29 | 1.0% | 7.9% | .
30 | -15.8% | 22.4µM* | ?

No. | Compound | Rango release inh | ASM inhibitor | Eya2 phos inh
31 | O=C1CCC[C@@H]2CC(Nc3ccccc3)C[C@@H]3CCN1[C@H]23 (stereo partly specified) | . | . | .
32 | COC(=O)C1C2CC3c4[nH]c5cc(OC)ccc5c4CCN3CC2CC(O)C1OC (stereo unspecified) | ? | 91.9% | .
33 | COC(=O)C1C2CC3c4[nH]c5cc(OC)ccc5c4CCN3CC2CC(OC(=O)CC(C)=O)C1OC (stereo unspecified) | ? | 84.1% | .
34 | CCN(CC)c1ccc2c(c1)oc(=O)c1c(Cl)cc(=O)oc12 | ? | 188.3% | -8.7%
35 | CCN(CC)c1ccc2c(C)c(Cl)c(=O)oc2c1 | ? | i | -0.6%
36 | CCc1ccc(-c2cc(C(F)(F)F)n3nc(C(=O)Nc4cnn(Cc5ccc(C)cc5)c4)cc3n2)s1 | ? | 180.6% | -11.6%
37 | Cc1ccccc1Cn1cc(NC(=O)c2cc3nc(-c4ccco4)cc(C(F)(F)F)n3n2)cn1 | ? | 126.1% | 19.7%
38 | C=C(c1nc2ccccc2s1)C1Cc2cccc3c2N(CCC3)C1 (stereo unspecified) | . | . | .
39 | CN1CCc2c(sc(NC(=O)CS(=O)(=O)c3ccccc3)c2C(N)=O)C1 | 23.1µM* | 40.0% | 7.4%
40 | CCOC(=O)N1CCc2c(sc(NC(=O)c3ccc(S(=O)(=O)N4CCCC4)cc3)c2C#N)C1 | ? | -3.5% | -1.4%
41 | CNC(=O)c1c(NC(=O)c2ccc(S(=O)(=O)N(C)c3ccccc3)cc2)sc2c1CCN(C(C)C)C2 | ? | -12.8% | 4.2%
42 | CCN1CCc2c(sc(NC(=O)c3ccc(S(=O)(=O)N(C)c4ccccc4)cc3)c2C(=O)NC)C1 | ? | -6.3% | 3.0%
43 | CC(C)N1CCc2c(sc(NC(=O)c3ccc(S(=O)(=O)N4CCOCC4)cc3)c2C#N)C1 | ? | 8.9% | 19.9%

No. | Vif-APOBEC3G blk | Vif-A3F inh | Rango complex inh
31 | 2.6% | . | .
32 | -5.7% | ? | ?
33 | ? | 25.1µM* | ?
34 | ? | 25.1µM* | ?
35 | -2.7% | -0.1% | ?
36 | ? | 11.2µM* | ?
37 | -6.2% | 0.1% | ?
38 | 10.8% | . | .
39 | 0.0% | 6.3% | ?
40 | -0.3% | ? | ?
41 | ? | 7.08µM* | ?
42 | ? | 11.2µM* | ?
43 | -23.2% | 12.6µM* | ?

Random excerpt: four records from the list.
No. | Compound | Rango release inh | ASM inhibitor | Eya2 phos inh
18 | COc1ccc(CC(=O)NNc2ncnc3c2cnn3-c2ccc(C)cc2)cc1 | 14.6µM* | -0.2% | -4.3%
25 | COc1ccc(C2C(C#N)=C(N)OC3=C2C(=O)CC(C)(C)C3)c([N+](=O)[O-])c1OC (stereo unspecified) | 23.1µM* | 24.3% | -4.4%
30 | Nc1c(N(CCC2=CCCCC2)C(=O)c2ccc([N+](=O)[O-])o2)c(=O)[nH]c(=O)n1Cc1ccccc1 | -13.0% | 7.1% | -2.7%
38 | C=C(c1nc2ccccc2s1)C1Cc2cccc3c2N(CCC3)C1 (stereo unspecified) | . | . | .

No. | Vif-APOBEC3G blk | Vif-A3F inh | Rango complex inh
18 | -6.2% | -3.4% | -7.1%
25 | -0.1% | -1.7% | ?
30 | -15.8% | 22.4µM* | ?
38 | 10.8% | . | .
